Read-outs that look alike come from different tables or passages of the source.
Assays:
mouse RORγ = mouse RORγ (Mus musculus, UniProt P51450); assay: In vitro assay of inhibitory effect against RORγ transcriptional activity (GAL4-mRORγ LBD luciferase reporter gene assay in CHO cells); conditions: read-out: LUC EC50 mRORγ
Description: (§1) In Vitro Assay of Inhibitory Effect Against RORγ Transcriptional Activity
(§2) Inhibitory effect of a test article on transcriptional activity of RORγ was measured by means of the following reporter gene assay.
(§3) cDNA encoding human and mouse RORγ ligand binding domain (LBD) were obtained based on the sequences of human RORγ (Genebank registered number NM_005060.3) and mouse RORγ (Genebank registered number NM_011281.2) (LBD sequence: human RORγ, from Ser253 to Lys518; mouse RORγ, from Ile251 to Lys516).
(§4) The LBD cDNA of human or mouse RORγ was inserted into pFA-CMV vector (Strategene), which expresses GAL4-DNA binding domain fusion protein. The resulting plasmids are hereinafter referred to as GAL4-hRORγ plasmid and GAL4-mRORγ plasmid, respectively.
(§5) GAL4-hRORγ plasmid or GAL4-mRORγ plasmid was transiently co-transfected into Chinese hamster ovary cells (CHO cells) with pG5-Luc (Promega), a reporter plasmid expressing firefly luciferase depending on GAL4.
(§6) TransIT (Registered trademark) CHO transfection reagent (Mirus) was used to co-transfect GAL4-hRORγ plasmid or GAL4-mRORγ plasmid into CHO cells with pG5-Luc plasmid. One day before the assay, CHO cells were suspended in HAM F-12 Nutrient medium containing 10 v/v % fetal bovine serum and seeded at 6×10^6 cells per 175 cm^2 cell culture flask. […]
(§7) RORγ transcriptional activity was detected as the intracellular luciferase activity using SteadyLite HTS Reporter Gene Assay System (Perkin Elmer). […] After the incubation at room temperature for 10 minutes, luminescence of each well was measured by a microplate reader. The luciferase activity derived from the luminescence count in the vehicle-control well treated with 0.2% DMSO alone was defined as 100%, and the luciferase activity in the test article was calculated as a percentage (%-of-control) based on the value of the vehicle-control. EC50 value of test article was calculated by curve fitting with GraphPad Prism. […]

The chains behind the UniProt entries cited, without tags or fusion partners. Residues count along the entry.
UniProt P51450, 251-516 limits assumed: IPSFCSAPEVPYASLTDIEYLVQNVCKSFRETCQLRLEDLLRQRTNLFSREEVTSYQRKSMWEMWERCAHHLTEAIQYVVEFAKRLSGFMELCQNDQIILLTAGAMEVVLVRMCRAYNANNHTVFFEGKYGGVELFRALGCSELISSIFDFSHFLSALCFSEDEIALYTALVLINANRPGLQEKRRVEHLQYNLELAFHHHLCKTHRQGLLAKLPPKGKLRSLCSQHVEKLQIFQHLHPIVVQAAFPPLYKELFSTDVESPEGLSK
UniProt P51449, 253-518 limits assumed: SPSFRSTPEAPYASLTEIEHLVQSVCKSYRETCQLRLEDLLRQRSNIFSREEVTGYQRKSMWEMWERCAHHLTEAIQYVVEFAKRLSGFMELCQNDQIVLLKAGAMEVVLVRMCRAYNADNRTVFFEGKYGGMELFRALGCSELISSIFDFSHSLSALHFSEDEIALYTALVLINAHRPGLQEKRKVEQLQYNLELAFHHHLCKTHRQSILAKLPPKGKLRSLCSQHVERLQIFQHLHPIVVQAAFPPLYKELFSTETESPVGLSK

human RORγ = human RORγ (Homo sapiens, UniProt P51449); assay: In vitro assay of inhibitory effect against RORγ transcriptional activity (GAL4-hRORγ LBD luciferase reporter gene assay in CHO cells); conditions: read-out: LUC EC50 hRORγ
Description: as §1, §2, §3, §4, §5, §6, §7

[1] = GAL4-mRORγ LBD luciferase reporter, CHO cells
[2] = GAL4-hRORγ LBD luciferase reporter, CHO cells

| SMILES | EC50 (mouse RORγ; [1]) | EC50 (human RORγ; [2]) | EC50 (mouse RORγ; GAL4-mRORγ LBD / pG5-Luc in CHO cells, 2 days incubation) | EC50 (human RORγ; GAL4-hRORγ LBD / pG5-Luc in CHO cells, 2 days incubation) |
| --- | --- | --- | --- | --- |
| CC(C)C1=CN(C23C4C5C2C2C3C4C52C(=O)O)C(=O)N[C@@]1(C)c1ccc(CCC(C)(C)C)c(C(F)(F)F)c1 (stereo partly drawn) | 36 nM | 32 nM |  |  |
| CC(C)C1=CN(CCC(=O)O)C(=O)N[C@@]1(C)c1ccc(CC2CCCC2)c(Cl)c1 [Example 263] | 33 nM | 45 nM |  |  |
| Cc1cc(C2(C)NC(=O)N(CCCC(=O)O)C=C2C(C)C)ccc1CCC(C)(C)C (racemic) |  |  | 21 nM | 28 nM |

Source: patent US10196363B2, “Dihydropyrimidin-2-one compounds and medical use thereof” (JAPAN TOBACCO INC., priority 2014, dated 2019)
